# From the supplement of paper PMC12340641
# Sequences of proteins named here, by UniProt entry; tags and fusion partners are left off. A change or cut given only in a name is not applied to a line headed by its entry.
# UniProt Q13422: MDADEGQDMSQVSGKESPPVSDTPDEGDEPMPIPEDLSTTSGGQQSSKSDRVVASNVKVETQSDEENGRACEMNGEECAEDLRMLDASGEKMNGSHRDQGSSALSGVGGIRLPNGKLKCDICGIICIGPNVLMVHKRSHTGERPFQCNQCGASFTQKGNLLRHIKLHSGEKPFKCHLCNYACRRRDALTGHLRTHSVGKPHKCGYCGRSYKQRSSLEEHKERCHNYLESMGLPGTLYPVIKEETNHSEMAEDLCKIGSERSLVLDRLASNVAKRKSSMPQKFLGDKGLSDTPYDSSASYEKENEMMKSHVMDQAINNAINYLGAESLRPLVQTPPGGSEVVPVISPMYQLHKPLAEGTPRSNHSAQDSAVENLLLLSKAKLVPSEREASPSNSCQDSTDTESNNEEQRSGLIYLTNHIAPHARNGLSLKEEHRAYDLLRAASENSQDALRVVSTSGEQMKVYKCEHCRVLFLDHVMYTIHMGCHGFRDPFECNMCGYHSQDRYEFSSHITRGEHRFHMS
# For part of these data: The strong results were mostly taken out for another list; the other results follow. Only a part is listed here, and it is no random draw.
# Tests used:
# [1] = target: IKZF1 (dCK*-IKZF1 fusion in HEK293FT) (UniProt Q13422); assay: inhibition of IKZF1 HTRF signal (DMSO = 0%, pomalidomide 10 uM = 100%); higher = lower IKZF1 protein level; settings: compound concentration: 5 uM, overnight (~20 h)
# Method in brief: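 Values are percent inhibition of IKZF1 signal, normalised plate by plate against vehicle and a reference degrader. HEK293FT cells stably expressing an IKZF1 fusion were seeded at 2000 per well in 384-well plates and exposed to 5 μM compound in single wells overnight at 37 °C. After 30 min lysis at room temperature, lysates were incubated overnight with a commercial HTRF total-IKZF1 antibody kit, and the background-subtracted 665/620 nm time-resolved FRET ratio was read. On each plate, vehicle was set at 0% and the reference degrader at 100%.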
# [2] = system: HEK293FT dCK*-only; assay: relative growth in counter assay (no AraC = 100%, AraC + DMSO = 0%); higher = more growth rescue independent of IKZF1; settings: compound concentration: 5 uM; AraC concentration: 0.3 uM; overnight pretreatment + 4 days AraC
# Method in brief: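 This counter assay used HEK293FT cells expressing only an engineered kinase construct, seeded at 300 per well in 384-well plates. Compound was added at 5 μM 2 h after seeding, and after overnight at 37 °C the cells received a nucleoside suicide substrate at 0.3 μM plus medium for 4 days. On day 5, nuclei stained with Hoechst 33342 were counted by imaging, and relative growth was normalised per plate; wells without suicide substrate were set at 100% and wells with substrate plus vehicle at 0%.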
# [3] = system: HEK293FT dCK*-IKZF1; assay: relative growth recovery (pomalidomide 10 uM = 100%, DMSO = 0%); higher = more growth rescue (IKZF1 fusion degradation); settings: compound concentration: 5 uM; AraC concentration: 0.3 uM; overnight pretreatment + 4 days AraC
# Method in brief: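 On day 5, whole-well imaging was used to count Hoechst 33342-stained nuclei of HEK293FT cells stably carrying a deoxycytidine kinase–IKZF1 fusion. These cells had received 5 μM compound 2 h after seeding, followed after overnight at 37 °C by a nucleoside suicide substrate at 0.3 μM plus medium for 4 days. Growth recovery was normalised on each plate against a reference degrader and vehicle, which defined 100% and 0%, and values are duplicate means from separate days.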
structure (smiles),measurement,setting,value
COc1cc(Br)c(C[N+]2(CCOCCC3CC[C@H]4C[C@@H]3C4(C)C)CCOCC2)cc1OC (stereo partly drawn) [pinaverium],inhibition of IKZF1 HTRF signal,[1],-28.2%
same,relative growth in counter assay,[2],5.92%
same,relative growth recovery,[3],5.54%
